Columns and labels:
[1] = target: human orexin 1 receptor (Homo sapiens, UniProt O43613); assay: Human orexin 1 receptor radioligand binding; conditions: averages of 2-20 runs, read-out: hOX1 Ki
Experimental: The in vitro affinity of the compounds of the invention for the rat/human orexin 1 and human orexin 2 receptors was determined by competitive radioligand binding using [^3H](1-(5-(2-fluoro-phenyl)-2-methyl-thiazol-4-yl)-1-((S)-2-(5-phenyl-(1,3,4)oxadiazol-2-ylmethyl)-pyrrolidin-1-yl)-methanone) (Langmead et al., 2004) and [^3H]EMPA (n-ethyl-2[96-methoxypyridin-3-yl)-(toluene-2-sulfonyl)-amino]-N-pyridin-3-ylmethyl acetamide), respectively (Langmead et al., 2004, British Journal of Pharmacology 141:340-346; Malherbe et al., 2004, British Journal of Pharmacology 156:1326-41).
(§1) Data are analyzed using pc-Sandy macro and graphed on Graphpad Prism 5. For analysis, each concentration point is averaged from triplicate values and the averaged values are plotted on Graphpad Prism. The IC50 was determined by applying the following equation (GraphPad Prism 5.0, SanDiego) for one site competition where X=log (concentration) and Y=specific binding. Top denotes the total [^3H]-(1-(5-(2-fluoro-phenyl)-2-methyl-thiazol-4-yl)-1-((S)-2-(5-phenyl-(1,3,4)oxadiazol-2-ylmethyl)-pyrrolidin-1-yl)-methanone) binding, bottom denotes the nonspecific [^3H]-(1-(5-(2-fluoro-phenyl)-2-methyl-thiazol-4-yl)-1-((S)-2-(5-phenyl-(1,3,4)oxadiazol-2-ylmethyl)-pyrrolidin-1-yl)-methanone) binding. Graphpad Prism calculates Ki value from IC50 and the pre-determined Kd values for [^3H]-(1-(5-(2-fluoro-phenyl)-2-methyl-thiazol-4-yl)-1-((S)-2-(5-phenyl-(1,3,4)oxadiazol-2-ylmethyl)-pyrrolidin-1-yl)-methanone) and [3H]-EMPA. The Ki for each compound is then uploaded into 3DX. Each run comprises individual compounds in triplicate.
(§2) Rat and Human Orexin 1 Receptor Radioligand Binding Studies
Human Embryonic Kidney 293 cells (HEK293) stably expressing rat orexin 1 receptor (Genebank accession number NM_001525) or Chinese ovary cells (CHO) stably expressing human orexin 1 receptor (Genebank accession number NM_001526) were grown to confluency in DMEM (Hyclone, cat #SH30022), 10% FBS, 1×Pen/Strep, 1× sodium pyruvate, 10 mM HEPES, 600 μg/mL G418 and DMEM/F12 (Gibco, Cat #11039), 10% FBS, 1×Pen/Strep, 600 μg/mL G418 media, respectively on 150 cm^2 tissue culture plates, washed with 5 mM EDTA in PBS (HyClone Dulbecco's Phosphate Buffered Saline 1× with Calcium and Magnesium, Cat #SH30264.01, hereafter referred to simply as PBS) and scraped into 50 ml tubes. After centrifugation (2K×G, 5 min at 4° C.), the supernatant was aspirated and the pellets frozen and stored at −80° C. Cells were resuspended in PBS in the presence of 1 tablet of protease inhibitor cocktail (Roche, Cat. #11836145001) per 50 mL. Each cell pellet from a 15 cm plate was resuspended in 10 mL, stored on ice, and homogenized for 45 sec prior to addition to the reactions. Competition binding experiments in 96 well polypropylene plates were performed using [^3H]-(1-(5-(2-fluoro-phenyl)-2-methyl-thiazol-4-yl)-1-((S)-2-(5-phenyl-(1,3,4)oxadiazol-2-ylmethyl)-pyrrolidin-1-yl)-methanone) (Moraveck Corporation, specific activity=35.3 Ci/mmol), diluted to a 10 nM concentration in PBS (4 nM final). Compounds were solubilized in 100% DMSO (Acros Organics, Cat. #61042-1000) and tested over a range of 7 concentrations (from 0.1 nM to 10 μM). The final concentration of DMSO in the reactions is equal to or less than 0.1%. Total and nonspecific binding was determined in the absence and presence of 10 μM almorexant. The total volume of each reaction is 200 μL (20 μL of diluted compounds, 80 μL of [^3H]-(1-(5-(2-fluoro-phenyl)-2-methyl-thiazol-4-yl)-1-((S)-2-(5-phenyl-(1,3,4)oxadiazol-2-ylmethyl)-pyrrolidin-1-yl)-methanone) diluted in PBS and 100 μL of the cell suspension). Reactions were run for 60 min at room temperature and terminated by filtration through GF/C filter plates (PerkinElmer, Cat. #6005174) presoaked in 0.3% polyethylenimine using the cell harvester (PerkinElmer Filtermate). The plates were washed 3 times by aspirating 30 ml PBS through the plates.

By UniProt entry, the sequences of proteins in these tests, tags left out.
UniProt O43614, whole entry: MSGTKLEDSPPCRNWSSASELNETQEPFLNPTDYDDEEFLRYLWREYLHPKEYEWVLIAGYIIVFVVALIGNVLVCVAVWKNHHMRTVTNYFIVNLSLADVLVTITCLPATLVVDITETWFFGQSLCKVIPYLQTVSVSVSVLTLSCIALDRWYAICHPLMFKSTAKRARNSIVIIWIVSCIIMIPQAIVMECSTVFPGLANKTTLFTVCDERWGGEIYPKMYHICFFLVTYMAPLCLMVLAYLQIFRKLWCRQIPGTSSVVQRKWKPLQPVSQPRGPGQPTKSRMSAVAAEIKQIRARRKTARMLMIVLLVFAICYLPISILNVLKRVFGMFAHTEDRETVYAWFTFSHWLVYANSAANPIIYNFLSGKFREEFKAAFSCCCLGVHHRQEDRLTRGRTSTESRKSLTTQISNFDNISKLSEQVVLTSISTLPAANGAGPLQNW

[2] = target: rat orexin 1 receptor (Rattus norvegicus, UniProt P56718); assay: Rat orexin 1 receptor radioligand binding; conditions: averages of 2-20 runs, read-out: rOX1 Ki
Experimental: as §1, §2
After centrifugation (2K×G, 5 min at 4° C.), the supernatant was aspirated and the pellets frozen and stored at −80° C. […] Each cell pellet from a 15 cm plate was resuspended in 10 mL, stored on ice, and homogenized for 45 sec prior to addition to the reactions. Competition binding experiments in 96 well polypropylene plates were performed using [^3H]-(1-(5-(2-fluoro-phenyl)-2-methyl-thiazol-4-yl)-1-((S)-2-(5-phenyl-(1,3,4)oxadiazol-2-ylmethyl)-pyrrolidin-1-yl)-methanone) (Moraveck Corporation, specific activity=35.3 Ci/mmol), diluted to a 10 nM concentration in PBS (4 nM final). […] The final concentration of DMSO in the reactions is equal to or less than 0.1%. Total and nonspecific binding was determined in the absence and presence of 10 μM almorexant. The total volume of each reaction is 200 μL (20 μL of diluted compounds, 80 μL of [^3H]-(1-(5-(2-fluoro-phenyl)-2-methyl-thiazol-4-yl)-1-((S)-2-(5-phenyl-(1,3,4)oxadiazol-2-ylmethyl)-pyrrolidin-1-yl)-methanone) diluted in PBS and 100 μL of the cell suspension). […] The plates were washed 3 times by aspirating 30 ml PBS through the plates. Plates were dried in 55° C. oven for 60 min, scintillation fluid was added, and the radioactivity was counted on a Topcount (Packard).

[3] = target: human orexin 2 receptor (Homo sapiens (Human), UniProt O43614); assay: Human orexin 2 receptor radioligand binding ([3H]-EMPA); conditions: averages of 2-20 runs, read-out: hOX2 Ki
Experimental: as §1
Human Orexin 2 Receptor Radioligand Binding Studies
HEK293 stably expressing human orexin 2 receptor (Genebank accession number NM_001526) were grown to confluency in DMEM (Hyclone, cat #SH30022), 10% FBS, 1×Pen/Strep, 1× NaPyruvate, 10 mM HEPES, 600 ug/ml G418 media on 150 cm^2 tissue culture plates, washed with 5 mM EDTA in PBS (HyClone Dulbecco's Phosphate Buffered Saline 1× with Calcium and Magnesium, Cat #SH30264.01, hereafter referred to simply as PBS) and scraped into 50 ml tubes. After centrifugation (2K×G, 5 min at 4° C.), the supernatant was aspirated and the pellets frozen and stored at −80° C. […] Each cell pellet from a 15 cm plate was resuspended in 10 mL, stored on ice, and homogenized for 45 sec just prior to addition to the reactions. Competition binding experiments in 96 well polypropylene plates were performed using [^3H]-EMPA (Moraveck Corporation, specific activity=29.6 Ci/mmol), diluted to a 5 nM concentration in PBS (2 nM final concentration). […] The final concentration of DMSO in the reactions is equal to or less than 0.1%. Total and nonspecific binding was determined in the absence and presence of 10 μM almorexant. The total volume of each reaction is 200 μL (20 μL of diluted compounds, 80 μL of [^3H]-EMPA diluted in PBS and 100 μL of the cell suspension). […] The plates were washed 3 times by aspirating 30 ml PBS through the plates. Plates were dried in 55° C. oven for 60 min, scintillation fluid was added, and the radioactivity was counted on a Topcount (Packard).

Row | Compound | Ki [1] | Ki [2] | Ki [3]
1 | Cc1ccc(C(=O)N2CCC[C@@H](Nc3cnc(Cl)cn3)[C@@H]2C)c(-n2nccn2)c1 (relative stereo) [Example 180, ((2S*,3R*)-3-((5-chloropyrazin-2-yl)amino)-2-methylpiperidin-1-yl)(4-methyl-2-(2H-1,2,3-triazol-2-yl)phenyl)methanone] | 27 nM | 31 nM | 
2 | Cc1cnc(C(=O)N2CCC[C@@H](Nc3cnc(Cl)cn3)[C@@H]2C)c(-n2nccn2)c1 (relative stereo) [Example 182, ((2S*,3R*)-3-((5-chloropyrazin-2-yl)amino)-2-methylpiperidin-1-yl)(5-methyl-3-(2H-1,2,3-triazol-2-yl)pyridin-2-yl)methanone] |  |  | 10000 nM
3 | Cc1cnc(C(=O)N2CCC[C@@H](Nc3ncc(Cl)cn3)[C@@H]2C)c(-n2nccn2)c1 (relative stereo) [Example 183, ((2S*,3R*)-3-((5-chloropyrimidin-2-yl)amino)-2-methylpiperidin-1-yl)(5-methyl-3-(2H-1,2,3-triazol-2-yl)pyridin-2-yl)methanone] |  |  | 8900 nM
4 | Cc1noc(-c2cc(F)ccc2C(=O)N2CCC[C@@H](Nc3ccc(C(F)(F)F)cn3)[C@@H]2C)n1 (relative stereo) [Example 190, (4-fluoro-2-(3-methyl-1,2,4-oxadiazol-5-yl)phenyl)((2S*,3R*)-2-methyl-3-((5-(trifluoromethyl)pyridin-2-yl)amino)piperidin-1-yl)methanone] |  |  | 1200 nM
5 | CCOc1ccc(C)nc1C(=O)N1CCC[C@@H](Nc2ccc(C(F)(F)F)cn2)[C@@H]1C (relative stereo) [Example 194, (3-ethoxy-6-methylpyridin-2-yl)((2S*,3R*)-2-methyl-3-((5-(trifluoromethyl)pyridin-2-yl)amino)piperidin-1-yl)methanone] | 24 nM | 24 nM | 
6 | Cc1cnc(C(=O)N2CCC[C@@H](Nc3nnc(C(F)(F)F)s3)[C@@H]2C)c(-n2nccn2)c1 (relative stereo) [Example 195, ((2S*,3R*)-2-methyl-3-((5-(trifluoromethyl)-1,3,4-thiadiazol-2-yl)amino)piperidin-1-yl)(5-methyl-3-(2H-1,2,3-triazol-2-yl)pyridin-2-yl)methanone] |  |  | 10000 nM
7 | C[C@H]1[C@H](Nc2ncc(C(F)(F)F)cn2)CCCN1C(=O)c1cccc(F)c1-c1ncccn1 (relative stereo) [Example 200, (3-fluoro-2-(pyrimidin-2-yl)phenyl)((2S*,3R*)-2-methyl-3-((5-(trifluoromethyl)pyrimidin-2-yl)amino)piperidin-1-yl)methanone] | 27 nM | 35 nM | 
8 | C[C@H]1[C@H](Nc2ncc(C(F)(F)F)cn2)CCCN1C(=O)c1ccc(F)cc1-c1ncccn1 (relative stereo) [Example 202, (4-fluoro-2-(pyrimidin-2-yl)phenyl)((2S*,3R*)-2-methyl-3-((5-(trifluoromethyl)pyrimidin-2-yl)amino)piperidin-1-yl)methanone] | 65 nM | 35 nM | 
9 | C[C@H]1[C@H](Nc2ccc(C(F)(F)F)cn2)CCCN1C(=O)c1ccc(F)cc1-c1ncco1 (relative stereo) [Example 203, (4-fluoro-2-(oxazol-2-yl)phenyl)((2S*,3R*)-2-methyl-3-((5-(trifluoromethyl)pyridin-2-yl)amino)piperidin-1-yl)methanone] | 28 nM | 34 nM | 
10 | C[C@H]1[C@H](Nc2cnc(C(F)(F)F)cn2)CCCN1C(=O)c1cccc(F)c1-c1ncccn1 (relative stereo) [Example 207, (3-fluoro-2-(pyrimidin-2-yl)phenyl)((2S*,3R*)-2-methyl-3-((5-(trifluoromethyl)pyrazin-2-yl)amino)piperidin-1-yl)methanone] | 12 nM | 15 nM | 
11 | C[C@H]1[C@H](Oc2ccc(C(F)(F)F)cn2)CCCN1C(=O)c1ncccc1-c1ncccn1 (relative stereo) [Example 210, ((2S*,3R*)-2-methyl-3-((5-(trifluoromethyl)pyridin-2-yl)oxy)piperidin-1-yl)(3-(pyrimidin-2-yl)pyridin-2-yl)methanone] | 32 nM | 25 nM | 
